Measurements: PubChem BioAssay AID2806 (Sanford-Burnham Center for Chemical Genomics, 2010)
The entries are a selection whose mix differs from that of the whole data set. The source made the active and inactive calls.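 Rule for the calls: active = inhibition of at least 40% at 10 µM in the primary screen; inactive = the rest.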

Tested on: intestinal alkaline phosphatase [Mus musculus]
Experiment: mouse intestinal phosphatase enzyme inhibition – biochemical, luminescence, uHTS, primary screen (AID 2806);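 note: plate controls were DMSO with enzyme for no effect and no enzyme wells for full effect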
Settings: purified mouse IAP, CDP-Star luminescence, 30 min; at 10 µM; hits give high values

| Structure (SMILES) | inhibition |
| --- | --- |
| N#Cc1ccc(C(=O)NCC2(N3CCCCC3)CCCCC2)cc1 | inactive: 0.8% |
| CC(C)(C)OC(=O)N1CCC(N(C(=O)c2ccccc2)c2ccc(Cl)cc2)CC1 | inactive: -1.6% |
| CN(C)C1(CNC(=O)c2cccc(C#N)c2)CCCCC1 | inactive: -2.6% |
| CCCN1CCC(Nc2cc(OC)cc(OC)c2)CC1 | inactive: 3.4% |
| c1ccc(CN2CCC(Nc3ccccc3)CC2)cc1 | inactive: 5.8% |
| COc1cc(C(=O)NCC2(N3CCOCC3)CCCCC2)cc(OC)c1C | inactive: -10.6% |
| O=C(NCC1(N2CCOCC2)CCCCC1)c1cc(Br)ccc1Cl | inactive: -10.1% |
| COc1ccc(C(=O)NCC2(N3CCOCC3)CCCCC2)cc1OC | inactive: -9.7% |
| CCOC(=O)N1CCC(Nc2ccc(C)cc2)CC1 | inactive: 1.7% |
| N/C(=N\O)c1c(N)no[n+]1[O-] | inactive: -4.6% |
| O=C(OC1CN2CCC1CC2)C1c2ccccc2C=Cc2ccccc21 (configuration not stated) | inactive: 1.7% |
| CCc1cc(C(=O)NCC2(N3CCCCC3)CCCCC2)sc1C | inactive: 0.3% |
| CN1CCC(Nc2ccc(F)c(Cl)c2)CC1 | inactive: -5.4% |
| CCOc1ncccc1C(=O)NCC1(N2CCOCC2)CCCCC1 | inactive: -3.5% |
| O=C(O)C1(Nc2ccccc2)CCN(Cc2ccccc2)CC1 | inactive: 9% |
| CC(C)(C)OC(=O)N1CCC(Nc2ccccc2)CC1 | inactive: -0.7% |
| CCCOc1ccc(C(=O)NCC2(N(C)C)CCCCC2)cc1 | inactive: -7.3% |
| COc1cc(OC)cc(C(=O)NCC2(N3CCOCC3)CCCCC2)c1 | inactive: 5.9% |
| COc1cccc(C(=O)N(c2cc(C)cc(C)c2)C2CCN(C(=O)OC(C)(C)C)CC2)c1 | inactive: 1.3% |
| CCC(CO)(C(=O)OC1CN2CCC1CC2)c1ccccc1 (configuration not stated) | inactive: -4.5% |
| CN1CCC(Nc2ccc(Cl)cc2)CC1 | inactive: -5.4% |
| CCCOc1ccc(C)cc1CN(CCCl)CCCl | inactive: 3% |
| COc1cc(OC)cc(C(=O)NCC2(N3CCCCC3)CCCCC2)c1 | inactive: -7.8% |

| Structure (SMILES) | inhibition |
| --- | --- |
| Fc1ccccc1NC1CCN(Cc2ccccc2)CC1 | inactive: -3.3% |
| Cc1ccc(C(=O)NCC2(N3CCCCC3)CCCCC2)o1 | inactive: 8.3% |
| CCN1CCC(Nc2cccc(F)c2)CC1 | inactive: 12.5% |
| CN(C)c1ccc(C(=O)NCC2(N3CCCCC3)CCCCC2)cc1 | inactive: -0.3% |
| O=C(NCC1(N2CCCCC2)CCCCC1)c1ccco1 | inactive: -3.6% |
| CCOc1ccc(C)cc1CN(CCCl)CCCl | inactive: -10.3% |
| COc1ccc(NC2CCN(CCc3ccccc3)CC2)c(OC)c1 | inactive: -5% |
| CCOC(=O)N1CCC(Nc2ccc(F)cc2)CC1 | inactive: -4.4% |
| O=C(NCC1(N2CCCCC2)CCCCC1)c1ccc(F)cc1 | inactive: -0.6% |
| CCCCOc1ccc(C(=O)NCC2(N3CCOCC3)CCCCC2)cc1 | inactive: -4% |
| Cc1ccc(OCC(C)C)c(CN(CCCl)CCCl)c1 | inactive: 0.8% |
| CCOC(=O)N1CCC(Nc2cccc(C)c2)CC1 | inactive: -9.7% |
| CC(C)(C)OC(=O)N1CCC(N(C(=O)c2ccccc2)c2ccc(F)cc2)CC1 | inactive: -3.1% |
| COc1ccc(C(=O)NCC2(N3CCCCC3)CCCCC2)c(OC)c1OC | inactive: -9.3% |
| COc1ccc(C(=O)NCC2(N3CCCCC3)CCCCC2)cc1 | inactive: 2.2% |
| O=C(NCC1(N2CCCCC2)CCCCC1)c1cccs1 | inactive: 10.9% |
| O=C(NCC1(N2CCCCC2)CCCCC1)c1ccc(=O)[nH]c1 | inactive: 4.6% |
| CSc1ccccc1C(=O)NCC1(N2CCCCC2)CCCCC1 | inactive: -0.9% |
| Cc1cc(C)cc(N(C(=O)c2ccccc2)C2CCN(C(=O)OC(C)(C)C)CC2)c1 | inactive: -5% |
| O=C(NCC1(N2CCCCC2)CCCCC1)c1ccc(Cl)nc1 | inactive: -12.3% |
| O=C(NCC1(N2CCOCC2)CCCCC1)c1cc2ccccc2o1 | inactive: 7.7% |
| COc1ccc(Cl)cc1C(=O)NCC1(N2CCOCC2)CCCCC1 | inactive: 4.6% |
| O=C(OC1CN2CCC1CC2)C1c2ccccc2Oc2ccccc21 (configuration not stated) | inactive: 7.7% |

| Structure (SMILES) | inhibition |
| --- | --- |
| N#CC1(Nc2ccccc2)CCN(Cc2ccccc2)CC1 | inactive: -2.5% |
| O=C(NCC1(N2CCCCC2)CCCCC1)c1ccc(Cl)s1 | inactive: -0.8% |
| CCOC(=O)N1CCC(Nc2ccc(OC)cc2)CC1 | inactive: -12.4% |
| CC(C)c1ccc(NC2CCN(C(=O)OC(C)(C)C)CC2)cc1 | inactive: 0.4% |
| CN(C)c1cccc(C(=O)NCC2(N3CCCCC3)CCCCC2)c1 | inactive: -10.2% |
| COc1ccc(CN(CCCl)CCCl)cc1Cl | inactive: 3.9% |
| O=C(NCC1(N2CCOCC2)CCCCC1)c1cc(F)c(F)cc1Cl | inactive: 0.7% |
| COc1cc(OC)c(C(=O)NCC2(N(C)C)CCCCC2)cc1OC | inactive: -0.9% |
| O=C(NCC1(N2CCCCC2)CCCCC1)c1cncc(Br)c1 | inactive: 6.4% |
| CN1CCC(Nc2cccc(F)c2)CC1 | inactive: -0.2% |
| O=C(NCC1(N2CCCCC2)CCCCC1)c1ccc(OC(F)F)cc1 | inactive: 2.5% |
| N#CC1(Nc2ccccc2)CCN(CCc2ccccc2)CC1 | inactive: 3.7% |
| CCN1CCC(Nc2ccc(Cl)cc2)CC1 | inactive: 1.1% |
| CSc1ccc(C(=O)NCC2(N3CCOCC3)CCCCC2)cc1 | inactive: -7.1% |
| O=C(NCC1(N2CCCCC2)CCCCC1)c1cccc([N+](=O)[O-])c1 | inactive: 2.2% |
| O=C(NCC1(N2CCCCC2)CCCCC1)c1cccc(C(F)(F)F)c1 | inactive: -2.7% |
| COc1cc(C(=O)NCC2(N3CCCCC3)CCCCC2)ccc1OC(F)F | inactive: -0.2% |
| O=C(NCC1(N2CCOCC2)CCCCC1)c1cc(=O)[nH]c2ccccc12 | inactive: -8.5% |
| CN1CCN(CCOC(=O)C(O)(c2ccccc2)c2ccccc2)CC1 | inactive: -8.4% |
| CC(C)c1ccc(C(=O)NCC2(N3CCOCC3)CCCCC2)cc1 | inactive: -2.4% |
| COc1ccc(NC2CCN(C(=O)OC(C)(C)C)CC2)cc1 | inactive: 4.6% |
